## Apparent affinities of Ab-14 variants for a coronavirus HR2 peptide

Reference: Engelhart et al. 2022, doi:10.1038/s41597-022-01779-4. File: FLAb, binding data.

All variants were tested on one target, the spike HR2 peptide PDVDLGDISGINAS (SARS-CoV-2).

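Variants in AAYL50 differ from the parent at up to three CDR positions; double and triple changes were sampled at random. AlphaSeq pools MATa yeast showing the antibodies with MATalpha yeast showing the peptide. Binding brings cells together so that they mate, and sequencing counts the barcode pairs among the diploids. The ratio of observed to expected reads was calibrated, replicate by replicate, on BCL2-family standards whose Kd was known from biolayer interferometry. The assay was run in three technical replicates.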

Parent: Ab-14, a human scFv built as VH, three GGGGS repeats, VL. Only the CDRs of the light chain vary.
VH: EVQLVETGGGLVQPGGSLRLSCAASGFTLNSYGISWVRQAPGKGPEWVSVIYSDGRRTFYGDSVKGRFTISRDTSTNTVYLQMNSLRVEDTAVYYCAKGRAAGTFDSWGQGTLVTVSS
VL: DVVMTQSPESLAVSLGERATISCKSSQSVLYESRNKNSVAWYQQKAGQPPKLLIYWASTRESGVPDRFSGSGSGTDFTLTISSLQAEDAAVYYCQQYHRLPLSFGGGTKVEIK

Variants are written as CDR1, CDR2 and CDR3 of the light chain (limits as in the source). Parent: KSSQSVLYESRNKNSVA, WASTRES, QQYHRLPLS.
The read-out is the apparent dissociation constant on a log10 scale (nM): the lower, the stronger.
"n.d." means that the variant was in the library but no mating with the target was seen in that replicate; the authors take this as a sign of poor binding, and no number exists.
As a blank, each scFv also met three strains without target: over library AAYL50, 18% of these pairings were detected, typically at 4.19 and seldom below 2.99. The control count says in how many pairings with the empty strains this scFv gave a signal, with their mean in brackets.

CDR-L1 | CDR-L2 | CDR-L3 | replicates, log10 nM | control signals
KSSQSVLYESRNKNPVA | WASTRES | GQLHRLPLS | 1.41 1.35 1.57 | 2 of 9 (5.28)
KSSQSVLYESRNKNSCA | NASTRES | QQYHRGPLS | 3.83 n.d. n.d. | 2 of 9 (4.06)
KSSQSVLYESRNKTSVA | WASTRES | QQYHRHPAS | 1.81 1.78 1.94 | 3 of 9 (4.10)
DSSQSVLYESRNKNSVA | VASTRES | QQYHRLPNS | n.d. 5.30 n.d. | 2 of 9 (3.74)
KSSQSVLYESRNKNSVS | WASTREQ | QQYHRLPLS | 2.70 2.74 2.49 | 3 of 9 (4.10)
KSSQSVYYESRNKNEVA | IASTRES | QQYHRLPLS | n.d. 3.90 n.d. | 0 of 9
KSLQSVLYESINKNSVA | WASTRES | QQYHRLPLW | 3.61 2.87 3.51 | 4 of 9 (4.95)
KSSQSVLYESRNKNSVA | WAPTRES | QWSHRLPLS | n.d. 4.97 5.20 | 2 of 9 (4.29)
LSSQSVDYESRNKNSVA | WASTRES | QQYHSLPLS | n.d. n.d. n.d. | 3 of 9 (4.37)
KSSQSVLYESRNKNSVA | WLSTREY | QQYWRLPLS | 2.15 2.43 2.27 | 2 of 9 (4.19)
NSIQSGLYESRNKNSVA | WASTRES | QQYHRLPLS | n.d. n.d. n.d. | 0 of 9
KSSQRVLYRSRNKNSVA | WASTRES | QQQHRLPLS | n.d. n.d. 5.83 | 2 of 9 (4.72)
KSSQSVEYESRNKNSVA | WLGTRES | QQYHRLPLS | 4.61 n.d. n.d. | 3 of 9 (4.95)
KSSQSVLYESRNKGSVS | WAYTRES | QQYHRLPLS | 3.93 n.d. 3.49 | 2 of 9 (3.95)
KSSQSVLYESRNKNSVA | WASTREC | QQYHRLILS | 6.09 4.88 n.d. | 2 of 9 (4.28)
KSSASVLYESRNKNSVA | WASTRET | QQYHRLPLS | 0.46 0.69 0.25 | 0 of 9
KSSQSVLYSSRNKNSVA | WASTRES | QCKHRLPLS | 2.08 1.73 2.22 | 5 of 9 (4.11)
KSSQSVAYESRNKNSVA | WAVTRES | QQYHRIPLS | 1.70 1.71 1.74 | 1 of 9 (3.24)
KSSQSVLYESRCKSSVA | IASTRES | QQYHRLPLS | n.d. 4.41 4.59 | 5 of 9 (4.71)
KSMQSVKYESRNKNSVA | WASTRWS | QQYHRLPLS | 1.42 1.64 1.56 | 6 of 9 (3.90)
QSSWSYLYESRNKNSVA | WASTRES | QQYHRLPLS | 3.29 1.56 1.99 | 0 of 9
KRSQWVLYESRNKNSVA | WASWRES | QQYHRLPLS | 2.42 n.d. n.d. | 0 of 9
KCSQSVKYESRNKNSVA | WANTRES | QQYHRLPLS | 2.39 2.10 2.52 | 4 of 9 (4.96)
KSSHSVLYESRNKNSVA | WASTRES | QQYMRLPLY | 0.39 0.71 0.56 | 0 of 9
KSSQSVLYESRNKNSVA | WISTRES | QQVHRGPLS | 4.76 n.d. 2.76 | 0 of 9
KSKVSMLYESRNKNSVA | WASTRES | QQYHRLPLS | 3.10 n.d. 2.70 | 0 of 9
KSSQSYLYESRNKNSVA | WASTRES | QQYHNLPLS | 2.73 2.17 2.68 | 5 of 9 (4.12)
KSSQSVLYESRNKNSVA | WASTQAS | QQGHRLPLS | 4.46 3.92 3.52 | 4 of 9 (4.28)
KSSQSVLQESRSKNSVA | WASTRDS | QQYHRLPLS | 2.05 2.36 1.98 | 1 of 9 (2.86)
KSSQSVLYELRNKNSVA | WASTRES | QQYYRLPLQ | n.d. 2.36 2.08 | 1 of 9 (3.18)
KSSQSVLYESRNKNSVA | WASTRES | QQYWRKPLR | 1.67 1.80 2.00 | 1 of 9 (4.40)

Top 4 of the variants detected in all replicates, tightest first:

CDR-L1,CDR-L2,CDR-L3,"replicates, log10 nM",control signals
KSSASVLYESRNKNSVA,WASTRET,QQYHRLPLS,0.46 0.69 0.25,0 of 9
KSSHSVLYESRNKNSVA,WASTRES,QQYMRLPLY,0.39 0.71 0.56,0 of 9
KSSQSVLYESRNKNPVA,WASTRES,GQLHRLPLS,1.41 1.35 1.57,2 of 9 (5.28)
KSMQSVKYESRNKNSVA,WASTRWS,QQYHRLPLS,1.42 1.64 1.56,6 of 9 (3.90)